# In PubChem BioAssay AID2648 (Johns Hopkins Ion Channel Center, 2010):
# Amino acid sequences for entries named in this document (tags omitted).
# UniProt P51787, whole entry: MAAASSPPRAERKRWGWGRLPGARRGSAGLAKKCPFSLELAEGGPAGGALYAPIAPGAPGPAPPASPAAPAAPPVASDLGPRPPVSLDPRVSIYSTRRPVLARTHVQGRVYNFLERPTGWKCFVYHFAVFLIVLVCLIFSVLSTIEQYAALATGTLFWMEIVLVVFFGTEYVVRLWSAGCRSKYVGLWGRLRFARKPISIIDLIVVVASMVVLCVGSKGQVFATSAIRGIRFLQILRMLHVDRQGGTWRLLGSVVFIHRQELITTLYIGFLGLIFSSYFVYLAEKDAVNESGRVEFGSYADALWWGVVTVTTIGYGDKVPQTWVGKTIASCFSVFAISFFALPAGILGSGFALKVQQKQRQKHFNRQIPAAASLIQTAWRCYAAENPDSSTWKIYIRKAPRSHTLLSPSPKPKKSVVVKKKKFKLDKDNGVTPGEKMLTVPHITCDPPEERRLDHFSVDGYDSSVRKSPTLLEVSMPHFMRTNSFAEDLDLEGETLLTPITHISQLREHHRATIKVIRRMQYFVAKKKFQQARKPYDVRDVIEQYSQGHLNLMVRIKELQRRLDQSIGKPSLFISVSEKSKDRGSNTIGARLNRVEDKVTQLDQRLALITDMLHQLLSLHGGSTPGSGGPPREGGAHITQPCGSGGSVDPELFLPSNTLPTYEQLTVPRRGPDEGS
# The entries are a selection whose mix differs from that of the whole data set. Some tests of the compounds listed are not included; inactive here does not mean inactive elsewhere. Activity calls are given as the source filed them.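 Rule for the calls: active = fluorescence ratio B-score, a plate-corrected score, at least three library SD, with initial intensity B-score within 5 SD; inactive = the rest.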
# Target: Potassium voltage-gated channel subfamily KQT member 1 (Homo sapiens) (UniProt P51787)
# Assay: human KCNQ1 current enhancers – cell-based, thallium flux, high-throughput, primary screen (AID 2648)
# Conditions: CHO-K1 KCNQ1, thallium flux FluxOR fluorescence; at 10 µM
row,Compound,outcome
1,O=C(NCC1(N2CCCCC2)CCCCC1)c1cc([N+](=O)[O-])ccc1Cl,inactive
2,CN1[C@@H]2CC[C@H]1CC(OC(=O)C(O)(c1ccccc1)c1ccccc1)C2 (some centres undefined),inactive
3,CC(C)N1C(=O)CC2(CCN(CCOC(=O)C(O)(c3ccccc3)c3ccccc3)CC2)C1=O,inactive
4,COc1cc(SC)ccc1C(=O)NCC1(N(C)C)CCCCC1,inactive
5,CCN(CC)CC(C)C(C)OC(=O)C(O)(c1ccccc1)c1ccccc1 (centres undefined),inactive
6,Cc1ccc(C(=O)NCC2(N3CCCCC3)CCCCC2)cc1,inactive
7,CN(C)C1CCCC1OC(=O)C(O)(c1ccccc1)c1ccccc1 (centres undefined),inactive
8,CN(C)c1ccc(C(=O)NCC2(N(C)C)CCCCC2)cc1,inactive
9,Cc1ccccc1C(=O)NCC1(N2CCCCC2)CCCCC1,inactive
10,O=C(NCC1(N2CCCCC2)CCCCC1)c1cc(F)c(F)cc1Cl,inactive
11,C=CCN1CCN(CCOC(=O)C(O)(c2ccccc2)c2ccccc2)CC1,inactive
12,O=C(NCC1(N2CCCCC2)CCCCC1)c1cccc(Br)c1,inactive
13,Cc1cc(C(=O)NCC2(N3CCCCC3)CCCCC2)ccc1[N+](=O)[O-],inactive
14,CCN1CCCC(OC(=O)C2(O)c3ccccc3C=Cc3ccccc32)C1 (centres undefined),inactive
15,COc1ccc(C(=O)NCC2(N(C)C)CCCCC2)cc1,inactive
16,CN(C)C1(CNC(=O)c2ccc(Br)cc2)CCCCC1,inactive
17,COc1cc(C(=O)NCC2(N(C)C)CCCCC2)c([N+](=O)[O-])cc1OC,inactive
18,COc1ccc(Cl)cc1C(=O)NCC1(N(C)C)CCCCC1,inactive
19,COc1cccc(C(=O)NCC2(N3CCCCC3)CCCCC2)c1,inactive
20,O=C(NCC1(N2CCCCC2)CCCCC1)c1cccc(Cl)c1,inactive
21,O=C(OC1CN2CCC1CC2)C(CO)(c1ccccc1)c1ccccc1 (centres undefined),inactive
22,COc1ccc(Br)c(C(=O)NCC2(N3CCCCC3)CCCCC2)c1,inactive
23,CN(C)c1cccc(C(=O)NCC2(N(C)C)CCCCC2)c1,inactive
24,CC(C)Oc1ccc(C(=O)NCC2(N(C)C)CCCCC2)cc1,inactive
